A short description of the data set: Released NBD label after thiourea stripping of conjugates prepared with varying conjugation times. It counts as physicochemical. The following applies: thiourea 10 mM, 37 °C, 30 minutes.

These results are taken from patent US10668168B2, “Method for removing weakly bound functional moieties from cell targeting conjugates” (priority 2015, dated 2020).

NBD-4Py-Lx-trastuzumab: the “Released label (%)” value is 47.1% (conjugation time 2 h) and 44.8% (conjugation time 6 h).
